Molecular target: epidermal growth factor receptor (EGFR) (human) (UniProt P00533)
Test: cell-based or functional assay

Q: How did the EC50, cell viability (XTT) after light treatment, A431 cells turn out when scFv-425-SNAP-IR700 was run?
A: 32 nM

Q: What about the EC50, cell viability (XTT) after light treatment, IGR-1 cells of the same substance?
A: 45 nM

Q: What about the EC50, cell viability (XTT) after light treatment, IGR-39 cells of the same substance?
A: 55 nM

From US20190071506A1
